Experiment [1] deals with TIM-1 (T cell, immunoglobulin domain and mucin domain 1), cell membrane-bound (human) (UniProt Q96D42). Put plainly: FACS on ACHN cells, normalised to isotype control pK16.
Experiment [2] deals with TIM-1 antigen, soluble extracellular domain of TIM-1 (CG57008-02) with a V5-HIS tag (human) (UniProt Q96D42). Nature of the experiment: BIAcore 2000, 25 C, mAb captured on goat anti-human surface, TIM-1 antigen injected at 292 nM. For orientation: SPR reads the build-up and loss of mass on a sensor chip optically.
In experiment [3] the target is TIM-1 (T cell, immunoglobulin domain and mucin domain 1), cell membrane-bound (human) (UniProt Q96D42). Put plainly: FACS on polarized human CD4+ Th2 cells, 10 ug/mL mAb, goat anti-human PE.
For experiment [4] the target is unchanged. Put plainly: cell-based or functional assay.

Usually Kd stands for the free concentration of one partner at which half of the binding sites on the other are occupied at equilibrium, for simple one-to-one binding. In the case of anti-TIM-1 monoclonal antibody 2.45, in experiment [1], the Geo Mean Ratio (relative to negative control) was found to be 4.3. Further, in experiment [2], the Kd amounted to 1.15 nM. Besides, the Geometric mean of fluorescence intensity in experiment [3] was found to be 42.4. In experiment [4], the IL-4 release by CD4+ Th1 cells, Percentage of Control Antibody (% of control antibody) turned out to be 39.8; the IL-4 release by CD4+ Th2 cells, Percentage of Control Antibody (% of control antibody) stood at 25.7; the IL-5 release by CD4+ Th1 cells, Percentage of Control Antibody (% of control antibody) was 90.2; the IL-5 release by CD4+ Th2 cells, Percentage of Control Antibody (% of control antibody) stood at 149. In experiment [4], this substance returned an IL-10 release by CD4+ Th1 cells, Percentage of Control Antibody (% of control antibody) of 84; an IL-10 release by CD4+ Th2 cells, Percentage of Control Antibody (% of control antibody) of 56; an IL-13 release by CD4+ Th1 cells, Percentage of Control Antibody (% of control antibody) of 96.2; an IL-13 release by CD4+ Th2 cells, Percentage of Control Antibody (% of control antibody) of 86.8. In experiment [4], this substance returned an INF γ release by CD4+ Th1 cells, Percentage of Control Antibody (% of control antibody) of 101 and an INF γ release by CD4+ Th2 cells, Percentage of Control Antibody (% of control antibody) of 25.7.

(Values after patent US20170267750A1, “Method of Treating Ovarian and Renal Cancer Using Antibodies Against T Cell Immunoglobulin Domain and Mucin Domain 1 (TIM-1) Antigen” (Celldex Therapeutics, Inc., priority 2005, published 2017).)
